# Measurements taken from patent publication US4238620A, “Dibenz[b,f]oxepin and dibenzo[b,f]thiepin derivatives, process for preparation thereof, method of using the same, and compositions thereof” (priority 1978, dated 1980).
# System: rats
# Assay: Overall comparison of lethal toxicity (Test 5)
# Type: in vivo
# Procedure: (a) Single administration in rats
# The mortality was observed on the 7th day after single administration of test compounds, and LD50 -value was calculated according to the method of Litchfield and Wilcoxon.
# (b) Repeated administrations in rats
# Test compounds were orally administered once daily for 5 days, and LD50 -value was calculated from the mortality on the 6th day.
smiles,measurement,setting,value
"Cc1ccc2c(c1)CC(=O)c1cc(CC(=O)O)ccc1O2 [compound B, 8-Methyl-10,11-dihydro-11-oxodibenz[b,f]oxepin-2-acetic acid]",toxicity relative to indomethacin,fraction of that of indomethacin,about 1/18
same,toxicity compared with indomethacin (in words),vs indomethacin,far weaker than those of indomethacin
